# According to patent US20260382772A1, “KETO-AMIDE-BASED FIBROBLAST ACTIVATION PROTEIN-TARGETED LIGAND LINKED TO AN IMAGING OR THERAPEUTIC AGENT, COMPOSITIONS, AND METHODS OF USE” (published 2026):
# Assays:
# [1] = tested on: HEK-FAP tumor bearing mice; assay: Dosimetry analysis using OLINDA software, HEK-FAP tumor; details: ^177Lu; 5 nmol/mouse
# Description: From the ex vivo biodistribution data obtained from the ^111In/^177Lu-FAP8-PEG3-IP-DOTA in 4T1 and HEK-FAP tumor bearing mice, the total absorbed radiation dose coefficients (mGy/MBq were calculated using OLINDA 2.2.3 software (Tables 9-12).
# FIGS. 36A and 36B show comparison data related to the total absorbed dose coefficient in selected organs (blood, heart, lungs, liver, spleen, kidney's bone marrow, and tumor). Dose estimates for healthy organs such as blood, heart, lungs, liver, spleen, kidneys, and bone marrow were calculated assuming a 25 g mouse phantom, whereas for tumor dose estimates were calculated with the sphere model. Time-activity curves were fitted to the biodistribution data of each organ individually with exponential functions.
# [2] = tested on: KB tumor bearing mice; assay: Toxicology (H&E histopathology) in KB tumor-bearing mice; details: single dose 37 MBq
# From the text: Mice were weighed every other day during radiotherapy as a gross evaluation of health. Tissue sections from organs of interest (n=1-8 per organ per mouse) were preserved and examined blindly for lesions by a board-certified veterinary pathologist.
# To assess toxicology in the KB tumor-bearing mice treated with Lu-Conjugate 24′, 4 μm sections of mouse heart, liver, and kidney tissue samples were taken following radiotherapy treatments of a single dose of [^177Lu] Lu-FAP8-PEG3-IP-DOTA (Lu-Conjugate 24′) and 37 MBq radiotherapy in athymic nu/nu mice bearing KB tumors. 1.0 mCi was used for the treatment. The tissue samples were stained with H&E and representative photomicrographs were taken (FIG. 49; Table 15).
structure (smiles),measurement,setting,value
COc1ccc(CNC(=O)C(=O)[C@@H]2CC(F)(F)CN2C(=O)CNC(=O)c2ccnc3ccc(OCC(=O)NCCOCCOCCOCCNC(=O)[C@H](CCCCNC(=O)CCCc4ccc(I)cc4)NC(=O)CN4CCN(CC(=O)O)CCN(CC(=O)O)CCN(CC(=O)O)CC4)cc23)cc1OC.[Lu+3],"Kinetics value, Blood",[1],4.26E−1 MBq-h/MBq
same,"Kinetics value, Bone Marrow",[1],6.27E−02 MBq-h/MBq
same,"Kinetics value, Heart",[1],1.05E−1 MBq-h/MBq
same,"Kinetics value, Intestines",[1],1.20E−1 MBq-h/MBq
same,"Kinetics value, Kidneys",[1],4.46E−01 MBq-h/MBq
same,"Kinetics value, Liver",[1],4.44E0 MBq-h/MBq
same,"Kinetics value, Lung",[1],1.56E−1 MBq-h/MBq
same,"Kinetics value, Spleen",[1],4.17E−1 MBq-h/MBq
same,"Kinetics value, Stomach",[1],5.81E−2 MBq-h/MBq
same,"Kinetics value, Tumor",[1],1.34E01 MBq-h/MBq
same,"Organ doses, Blood",[1],2.70E02 mGy/MBq
same,"Organ doses, Bone Marrow",[1],1.36E02 mGy/MBq
same,"Organ doses, Heart",[1],7.18E01 mGy/MBq
same,"Organ doses, Intestines",[1],7.32E01 mGy/MBq
same,"Organ doses, Kidneys",[1],2.34E02 mGy/MBq
same,"Organ doses, Liver",[1],4.41E02 mGy/MBq
same,"Organ doses, Lung",[1],5.73E01 mGy/MBq
same,"Organ doses, Spleen",[1],3.08E02 mGy/MBq
same,"Organ doses, Stomach",[1],4.13E01 mGy/MBq
same,"Organ doses, Tumor",[1],2.27E03 mGy/MBq
same,Heart histopathology,[2]; individual treated mice M4-M6,NDL
same,Kidneys histopathology,[2]; individual treated mice M4-M6,NDL
same,Lungs histopathology,[2]; individual treated mice M4-M6,NDL
same,mice with histopathologic lesions consistent with mononuclear inflammation around portal areas,"[2]; mice #4 and #6, no necrosis or neutrophil leukocytes",2 of the 3
